IC50 data for one molecule are collected here from patent US10023614B2.

Chains of the proteins cited; added tags and fusions are not shown. Residues count along the entry.
UniProt F1LX96, 1-639: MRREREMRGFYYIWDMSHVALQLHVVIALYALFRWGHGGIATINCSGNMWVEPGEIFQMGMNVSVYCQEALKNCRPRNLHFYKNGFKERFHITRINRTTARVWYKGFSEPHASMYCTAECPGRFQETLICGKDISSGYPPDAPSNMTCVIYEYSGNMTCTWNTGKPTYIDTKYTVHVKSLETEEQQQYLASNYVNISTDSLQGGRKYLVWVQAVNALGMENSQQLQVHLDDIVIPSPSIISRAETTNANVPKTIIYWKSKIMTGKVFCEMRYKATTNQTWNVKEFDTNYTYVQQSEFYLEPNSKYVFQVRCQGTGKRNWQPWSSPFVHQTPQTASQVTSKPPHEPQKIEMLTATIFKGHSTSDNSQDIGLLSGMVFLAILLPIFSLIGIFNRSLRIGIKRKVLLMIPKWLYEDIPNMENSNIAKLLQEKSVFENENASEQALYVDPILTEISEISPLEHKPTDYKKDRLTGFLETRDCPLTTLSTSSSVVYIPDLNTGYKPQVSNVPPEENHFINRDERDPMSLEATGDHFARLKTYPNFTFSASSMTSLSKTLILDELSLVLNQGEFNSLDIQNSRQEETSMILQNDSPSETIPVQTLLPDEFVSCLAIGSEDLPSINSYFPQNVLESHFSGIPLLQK

pIC50: −log10 of the molar value.

The assay concerns the target Rat IL-23R (Rattus norvegicus, UniProt F1LX96). The assay is described as follows: Rat IL-23R Competitive Binding ELISA. Particulars: read-out: Cross Reactivity, ELISA rat IL23R IL23.

As for `CC(=O)N[C@H]1CSSC[C@@H](C(=O)N[C@@H](Cc2ccc(O)cc2)C(=O)N[C@@H](Cc2c[nH]c3ccccc23)C(=O)N[C@@H](CCCNC(N)=O)C(=O)N[C@@H](CN)C(=O)N[C@@H](Cc2ccccc2)C(=O)NCC(=O)NCCOCC(=O)N[C@H](CCCCN)C(N)=O)NC(=O)[C@H](CCC(N)=O)NC(=O)[C@H](Cc2c[nH]c3ccccc23)NC(=O)[C@H]([C@@H](C)O)NC(=O)[C@H](CCC(N)=O)NC1=O`, the pIC50 is 5.00 to 6.00.
